In general, Kd refers to a measure of binding affinity in units of concentration. The low end stands for tighter binding, the high end for weaker binding.

The target of the assay is T1, uterine OT receptors (Rattus norvegicus, UniProt P70536).
T1 construct: from tissue; host or cells: rat uterus, crude membranes, DES-treated animals
T1 sequence (P70536 1-388): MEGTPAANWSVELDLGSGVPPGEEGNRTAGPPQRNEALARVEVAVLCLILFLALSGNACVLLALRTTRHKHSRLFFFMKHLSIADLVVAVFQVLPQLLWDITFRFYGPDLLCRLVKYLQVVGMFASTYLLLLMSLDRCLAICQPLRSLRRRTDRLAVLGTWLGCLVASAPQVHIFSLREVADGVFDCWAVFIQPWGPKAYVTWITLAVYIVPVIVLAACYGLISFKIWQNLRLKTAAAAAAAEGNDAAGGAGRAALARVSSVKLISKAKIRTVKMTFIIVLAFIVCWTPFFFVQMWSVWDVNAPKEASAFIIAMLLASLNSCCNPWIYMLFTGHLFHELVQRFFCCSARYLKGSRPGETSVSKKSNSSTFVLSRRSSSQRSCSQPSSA
The assay is described as follows: saturation binding of [^3 H]OT to uterine OT receptors (crude membrane preparation of uteri of DES-treated rats). As to conditions: saturation binding assay, uterus.

Regarding [tyrosyl, 3,5-[^3 H]OT [[^3]OT], the Kd turned out to be 0.7 nM.

The values above are taken from patent publication US5204349A, “Amide-substituted derivatives of spiroindanylcamphorsulfonyl oxytocin antagonists” (priority 1991, dated 1993).
